Earlier results, collected in patent publication US7517991B2, “N-sulfonylpiperidine cannabinoid receptor 1 antagonists” (Bristol-Myers Squibb Company, priority 2004, dated 2009).

Settings: chronic administration for two weeks

Cc1c(C(=O)NN2CCCCC2)nn(-c2ccc(Cl)cc2Cl)c1-c1ccc(I)cc1 [AM-251]
adipose tissue mass: decreased adipose tissue mass
